Values quoted from earlier work as cited in paper PMC8780580, “The Neuroactive Steroid Pregnanolone Glutamate: Anticonvulsant Effect, Metabolites and Its Effect on Neurosteroid Levels in Developing Rat Brains” (Pharmaceuticals, 2021).

What was measured:
[1] = within 0.5 min of uptake; cited from earlier work
[2] = set-up: method as in PMID 9408083; conditions: peripherally applied; cited from earlier work

Substance: pregnenolone sulfate [Pregnenolone sulfate (PE-S)]
- desulfation [1]: > 50%
- penetration across the BBB into the brain, slower compared with unconjugated counterpart [2]: about 10 times
